Consider 61 compounds from ChEMBL document CHEMBL1145889, “Potent and selective inhibitors of platelet-derived growth factor receptor phosphorylation. 3. Replacement of quinazoline moiety and improvement of metabolic polymorphism of 4-[4-(N-substituted (thio)carbamoyl)-1-piperazinyl]-6,7-dimethoxyquinazoline derivatives” (J Med Chem, 2003).

By UniProt entry, the sequences of proteins in these tests, tags left out.
UniProt P09619, whole entry: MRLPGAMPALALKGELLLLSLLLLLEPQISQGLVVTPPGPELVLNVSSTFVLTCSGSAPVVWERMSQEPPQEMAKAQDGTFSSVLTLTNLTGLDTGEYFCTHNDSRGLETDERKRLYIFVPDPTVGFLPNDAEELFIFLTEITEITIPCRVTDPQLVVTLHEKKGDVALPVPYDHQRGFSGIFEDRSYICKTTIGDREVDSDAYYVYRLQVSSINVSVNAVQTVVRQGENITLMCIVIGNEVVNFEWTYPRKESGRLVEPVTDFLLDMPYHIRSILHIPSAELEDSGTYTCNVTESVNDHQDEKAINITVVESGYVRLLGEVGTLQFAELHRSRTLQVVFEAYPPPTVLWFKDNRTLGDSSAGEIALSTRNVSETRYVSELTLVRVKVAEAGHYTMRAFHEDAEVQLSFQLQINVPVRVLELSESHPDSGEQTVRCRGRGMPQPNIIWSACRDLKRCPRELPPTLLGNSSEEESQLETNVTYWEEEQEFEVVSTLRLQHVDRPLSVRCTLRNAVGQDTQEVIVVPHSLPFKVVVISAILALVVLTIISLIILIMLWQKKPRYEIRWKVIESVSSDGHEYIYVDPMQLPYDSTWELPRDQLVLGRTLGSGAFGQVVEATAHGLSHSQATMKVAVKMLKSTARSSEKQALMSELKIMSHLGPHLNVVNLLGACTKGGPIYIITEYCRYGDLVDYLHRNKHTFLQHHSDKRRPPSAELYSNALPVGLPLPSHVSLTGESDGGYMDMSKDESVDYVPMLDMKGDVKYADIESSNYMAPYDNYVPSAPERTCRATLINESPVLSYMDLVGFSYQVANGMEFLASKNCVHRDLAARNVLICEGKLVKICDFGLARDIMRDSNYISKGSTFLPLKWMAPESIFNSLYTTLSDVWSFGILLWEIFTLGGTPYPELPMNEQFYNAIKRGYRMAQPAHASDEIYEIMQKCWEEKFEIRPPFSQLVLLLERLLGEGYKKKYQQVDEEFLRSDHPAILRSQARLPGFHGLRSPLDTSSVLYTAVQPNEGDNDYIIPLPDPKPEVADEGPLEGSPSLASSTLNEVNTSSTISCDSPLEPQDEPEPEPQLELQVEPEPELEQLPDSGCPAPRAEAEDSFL

Where only a bound is given, the exact number is not on record here.

In this assay the target is Platelet-derived growth factor receptor beta (Homo sapiens, UniProt P09619). It counts as cell-based.
Compound `COc1cc2nc(C)nc(N3CCN(C(=O)Nc4ccc(Oc5ccccc5)cc4)CC3)c2cc1OC` showed an IC50 of more than 30000 nM.
As to `O=C(Nc1ccc(Oc2ccccc2)cc1)N1CCN(c2ccnc3cc(Cl)ccc23)CC1`, inhibition was half-maximal at 100 nM (IC50). That is a sub-micromolar value.
Take `O=C(Nc1ccc(Oc2ccccc2)cc1)N1CCN(c2ncnc3n[nH]cc23)CC1`: half-maximal inhibition (IC50) required 170 nM.
Take `O=C(Nc1ccc(Oc2ccccc2)cc1)N1CCN(c2ncnc3cc4c(cc23)OCO4)CC1`: the IC50 was found to be 90 nM.
The result for `O=C(Nc1ccc(Oc2ccccc2)cc1)N1CCN(c2ccnc3ccccc23)CC1` reads 270 nM; that for `O=C(Nc1ccc(Oc2ccccc2)cc1)N1CCN(c2ccnc3ccc(Cl)cc23)CC1`, 130 nM.
As to `CCOc1cc2ncnc(N3CCN(/C(S)=N\Cc4ccccc4)CC3)c2cc1OC`, half-maximal inhibition (IC50) required 150 nM.
The compound `O=C(Nc1ccc(Oc2ccccc2)cc1)N1CCN(c2nnc(Cl)c3ccccc23)CC1` showed an IC50 of more than 30000 nM.
In the case of `CCOC(=O)c1cnc2cc(OC)c(OC)cc2c1N1CCN(C(=S)NCc2ccccc2)CC1`, the 50% inhibitory concentration (IC50) is 3260 nM.
`S=C(NCc1ccccc1)N1CCN(c2ncnc3ccccc23)CC1` showed an IC50 of more than 30000 nM.
On to `CCn1c(=O)n(CC)c2cc3c(N4CCN(C(=O)Nc5ccc(Oc6ccccc6)cc5)CC4)ncnc3cc21`, for which the IC50 was 780 nM.
As to `CCn1c(=O)[nH]c2cc3c(N4CCN(C(=O)Nc5ccc(Oc6ccccc6)cc5)CC4)ncnc3cc21`, the IC50 is more than 30000 nM.
In turn, `Cn1cnc2c(N3CCN(C(=O)Nc4ccc(Oc5ccccc5)cc4)CC3)ncnc21` gave a half-maximal inhibitory concentration (IC50) of more than 30000 nM.
Compound `O=C(Nc1ccc(Oc2ccccc2)cc1)N1CCN(c2ncnc3nc[nH]c23)CC1` gave an IC50 of 490 nM.
`CCOc1cc2c(N3CCN(/C(S)=N\Cc4ccccc4)CC3)ncnc2cc1OC` returned an IC50 of 620 nM.
The figure for `Cn1c(=O)n(C)c2cc3c(N4CCN(C(=O)Nc5ccc(Oc6ccccc6)cc5)CC4)ncnc3cc21` is 100 nM; for `CCCn1c(=O)n(CCC)c2cc3c(N4CCN(C(=O)Nc5ccc(Oc6ccccc6)cc5)CC4)ncnc3cc21` it is 21000 nM.
As for `CCNc1cc2ncnc(N3CCN(/C(S)=N\Cc4ccccc4)CC3)c2cc1N`, the IC50 is 1440 nM.
In turn, `O=C(Nc1ccc(Oc2ccccc2)cc1)N1CCN(c2cc(C(F)(F)F)nc3ccccc23)CC1` gave a half-maximal inhibitory concentration (IC50) of more than 30000 nM.
Turning to `CCCCn1c(=O)n(CCCC)c2cc3c(N4CCN(C(=O)Nc5ccc(Oc6ccccc6)cc5)CC4)ncnc3cc21`, the IC50 was more than 30000 nM.
The result for `O=C(Nc1ccc(Oc2ccccc2)cc1)N1CCN(c2ncnc3cc4c(cc23)OCCO4)CC1` reads 70 nM; that for `O=C(Nc1ccc(Oc2ccccc2)cc1)N1CCN(c2ncnc3[nH]c(=O)[nH]c23)CC1`, more than 10000 nM.
Consider `S=C(NCc1ccccc1)N1CCN(c2ccnc3cc(Cl)ccc23)CC1`, for which the IC50 is more than 30000 nM.
The result for `CCNc1cc2ncnc(N3CCN(C(=O)Nc4ccc(Oc5ccccc5)cc4)CC3)c2cc1[N+](=O)[O-]` reads 200 nM.
Take `CCn1c(=O)n(C)c2cc3c(N4CCN(C(=S)NCc5ccccc5)CC4)ncnc3cc21`: half-maximal inhibition (IC50) required 140 nM. This IC50 and that of the compound before are within 1.5-fold of each other.
Compound `COc1cc2ncnc(N3CCN(C(=O)Nc4ccc(Cl)cc4)CC3)c2cc1OC` had an IC50 of 1100 nM. This IC50 is about 7.9-fold higher than that of the compound before.
The figure for `S=C(NCc1ccccc1)N1CCN(c2ncnc3cc4c(cc23)OCCO4)CC1` is more than 30000 nM; for `S=C(NCc1ccccc1)N1CCN(c2ccnc3ccc(Cl)cc23)CC1` it is more than 30000 nM; for `CCn1c(=O)n(C)c2cc3c(N4CCN(C(=O)Nc5ccc(Oc6ccccc6)cc5)CC4)ncnc3cc21` it is 330 nM.
In the case of `COCCOc1cc2c(N3CCN(/C(S)=N\Cc4ccc5c(c4)OCO5)CC3)ncnc2cc1OC`, half-maximal inhibition (IC50) required 80 nM. This IC50 lies about 4.1-fold lower than the previous one.
Regarding `S=C(NCc1ccccc1)N1CCN(c2ncnc3cc4c(cc23)OCO4)CC1`, the IC50 was more than 30000 nM.
Consider `S=C(NCc1ccccc1)N1CCN(c2ncnc3cc4ccccc4cc23)CC1`, for which it took 1300 nM to reach half-maximal inhibition (IC50).
The result for `COc1cc2c(N3CCN(C(=S)NCc4ccccc4)CC3)ncnc2cc1C` reads 1540 nM; that for `O=C(Nc1ccc(Oc2ccccc2)cc1)N1CCN(c2cncc3ccccc23)CC1`, more than 30000 nM.
Take `O=C(Nc1ccc(Oc2ccccc2)cc1)N1CCN(c2ccnc3c(Cl)cccc23)CC1`: the IC50 is more than 10000 nM.
Take `CCOc1cc2ncnc(N3CCN(C(=S)NCc4ccccc4)CC3)c2cc1OCC`: the midpoint of inhibition, the IC50, lay at 310 nM.
`S=C(NCc1ccccc1)N1CCN(c2ccnc3ccccc23)CC1`: the IC50 is more than 30000 nM.
The figure for `Nc1nc(N2CCN(C(=O)Nc3ccc(Oc4ccccc4)cc3)CC2)c2[nH]cnc2n1` is 1500 nM; for `COc1cc2nccc(N3CCN(C(=O)Nc4ccc(Oc5ccccc5)cc4)CC3)c2cc1OC` it is 180 nM; for `O=C(Nc1ccc(Oc2ccccc2)cc1)N1CCN(c2nncc3ccccc23)CC1` it is 10300 nM.
As to `CCNc1cc2ncnc(N3CCN(C(=S)NCc4ccccc4)CC3)c2cc1[N+](=O)[O-]`, the IC50 is more than 30000 nM.
`CCn1nnc2cc3c(N4CCN(C(=O)Nc5ccc(Oc6ccccc6)cc5)CC4)ncnc3cc21` registered an IC50 of 290 nM.
`COc1cc2nc(Cl)nc(N3CCN(C(=O)Nc4ccc(Oc5ccccc5)cc4)CC3)c2cc1OC` displayed an IC50 of more than 30000 nM.
Compound `COc1cc2cncc(N3CCN(C(=O)Nc4ccc(Oc5ccccc5)cc4)CC3)c2cc1OC` came in with an IC50 of more than 30000 nM.
`COCCOc1cc2ncnc(N3CCN(/C(S)=N\Cc4ccc5c(c4)OCO5)CC3)c2cc1OC` showed an IC50 of 80 nM. In other words, the double-digit nanomolar range.
As to `CCOC(=O)c1cnc2cc(OC)c(OC)cc2c1N1CCN(C(=O)Nc2ccc(Oc3ccccc3)cc2)CC1`, inhibition was half-maximal at 90 nM (IC50).
The result for `COc1ccc2c(N3CCN(C(=O)Nc4ccc(Oc5ccccc5)cc4)CC3)ncnc2c1OC` reads more than 30000 nM.
Regarding `O=C(Nc1ccc(Oc2ccccc2)cc1)N1CCN(c2ncnc3ncccc23)CC1`, the IC50 is more than 30000 nM.
The figure for `COc1cc2nncc(N3CCN(C(=O)Nc4ccc(Oc5ccccc5)cc4)CC3)c2cc1OC` is 810 nM; for `COc1cc2ncnc(N3CCN(C(=S)NCc4ccccc4)CC3)c2cc1OS(C)(=O)=O` it is 10200 nM.
`COc1cc2c(N3CCN(C(=O)Nc4ccc(Oc5ccccc5)cc4)CC3)ncnc2c(OC)c1OC` displayed an IC50 of more than 30000 nM.
Compound `O=C(Nc1ccc(Oc2ccccc2)cc1)N1CCN(c2ncnc3cc4ccccc4cc23)CC1` displayed an IC50 of 390 nM. That is a sub-micromolar value.
Consider `CCn1cnc2cc3c(N4CCN(C(=S)NCc5ccccc5)CC4)ncnc3cc21`, for which the concentration for half-maximal inhibition (IC50) worked out at 2700 nM.
The compound `O=C(Nc1ccc(Oc2ccccc2)cc1)N1CCN(c2nnc(Cc3ccccc3)c3ccccc23)CC1` had a 50% inhibitory concentration (IC50) of more than 30000 nM.
`COc1cc(OC)c2ncnc(N3CCN(C(=O)Nc4ccc(Oc5ccccc5)cc4)CC3)c2c1`: inhibition was half-maximal at 10900 nM (IC50).
For the compound `O=C(Nc1ccc(Oc2ccccc2)cc1)N1CCN(c2ccnc3cc(C(F)(F)F)ccc23)CC1`, the IC50 came to 550 nM. Against the preceding compound, the IC50 is about 20-fold lower.
Take `COc1cc2nc(N3CCOCC3)nc(N3CCN(C(=O)Nc4ccc(Oc5ccccc5)cc4)CC3)c2cc1OC`: the IC50 was more than 30000 nM.
Take `O=C(Nc1ccc(Oc2ccccc2)cc1)N1CCN(c2ncnc3cnc(F)cc23)CC1`: inhibition was half-maximal at 13300 nM (IC50).
As for `O=C(Nc1ccc(Oc2ccccc2)cc1)N1CCN(c2ncnc3ccccc23)CC1`, the IC50 was 380 nM. Against the preceding compound, the IC50 is about 35-fold lower.
The figure for `S=C(NCc1ccccc1)N1CCN(c2ncnc3nc[nH]c23)CC1` is more than 30000 nM; for `Cn1ncc2c(N3CCN(C(=O)Nc4ccc(Oc5ccccc5)cc4)CC3)ncnc21` it is more than 30000 nM.

One may read the IC50 as the point on the concentration scale where inhibition reaches its midpoint. Low readings indicate greater potency, high ones weaker potency.
